pIC50: −log10 of the molar value.
tested on: S. cerevisiae tim10-1 mutant growth, luminescence; assay: growth inhibitors of tim10-1 mutant yeast, dose response, luminescence, S. cerevisiae, uHTS hits (AID 493003);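 also: yeast growth measured after about 22 hours at 25 °C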

Compared with `CCCOc1cccc(-c2cc(-c3n[nH]c(=S)n3CC)c3ccccc3n2)c1`, `CCCN(CCC)S(=O)(=O)c1ccc(NC(=O)COc2ccccc2)cc1` is 0.21 log units lower in pIC50: 4.60 for the first, 4.39 for the second.

`COc1cccc(NC(=S)N/N=C2\CC3CCC2(C)C3(C)C)c1` (centres undefined) and `O=C(NCCc1ccc(Cl)cc1)C1CCN(S(=O)(=O)c2cccs2)CC1` are within 0.2 log units of each other in pIC50: 4.56 for the first, 4.54 for the second.
